We go through one compound from PMC8258697 (The Journal of Biological Chemistry, 2021).

Amino acid sequences for entries named in this document (tags omitted). Residues count along the entry.
UniProt P19793, 226-462: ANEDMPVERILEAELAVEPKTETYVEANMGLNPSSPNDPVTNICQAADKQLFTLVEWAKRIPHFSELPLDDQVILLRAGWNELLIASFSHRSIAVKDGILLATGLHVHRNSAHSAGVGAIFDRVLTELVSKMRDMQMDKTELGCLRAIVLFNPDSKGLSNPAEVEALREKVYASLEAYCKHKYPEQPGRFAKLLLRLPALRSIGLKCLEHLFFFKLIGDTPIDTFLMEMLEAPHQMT
UniProt P37231, 234-505: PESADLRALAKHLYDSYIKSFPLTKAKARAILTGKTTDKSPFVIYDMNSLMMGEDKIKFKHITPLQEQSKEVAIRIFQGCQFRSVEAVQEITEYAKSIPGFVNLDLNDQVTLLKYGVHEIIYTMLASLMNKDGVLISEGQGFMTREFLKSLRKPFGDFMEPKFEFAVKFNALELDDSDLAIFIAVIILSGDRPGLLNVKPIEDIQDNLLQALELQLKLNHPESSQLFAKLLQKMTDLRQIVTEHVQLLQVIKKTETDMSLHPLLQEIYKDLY

The experiment deals with T1, PPARγ:RXRα heterodimer (Homo sapiens, UniProt P19793+P37231).
T1 construct: His10-tag with TEV site (N, cleaved yes); made in house; host or cells: E. coli T7 express (co-expressed with GroEL/ES)
Description: PPARγ:RXRα heterodimer formation HTRF assay, sGFP-RXRα LBD titrated against biotinylated PPARγ LBD coupled to Tb-SA. It counts as binding. (In general: Time-resolved FRET reads energy transfer from a long-lived donor to a nearby acceptor.)

Structures are written as SMILES.

Turning to `CN(CCOc1ccc(CC2SC(=O)NC2=O)cc1)c1ccccn1` (stereo not shown) [Rosi, rosiglitazone], the “reduction of the apparent Kd of heterodimer formation” value is given as 2 fold.
